From publication PMC9589981, “High-Resolution Epitope Mapping and Affinity Binding Analysis Comparing a New Anti-Human LAG3 Rabbit Antibody Clone to the Commonly Used Mouse 17B4 Clone” (Antibodies, 2022)

Columns and labels:
[1] = system: rabbit SP464 antibody (binding to LAG3 from HH cell lysate); test: ACE (automated capillary electrophoresis) peptide inhibition assay, SP464; details: for inhibition of SP464 binding by immunogen fragment (ACE): result in words, peptide at 5000 nM and 500 nM, HH cell lysate
Procedure: (§1) For each assay run, HH cell lysate was mixed with 0.1× WES sample buffer reagent, and reconstituted WES 5× Fluorescent Mix reagent followed by denaturation at 95 °C for 3 min and then held on ice followed until use. Denatured sample was added to each of the designated wells of the separation module sampling plate. Dilutions of the stock rabbit SP464 and mouse 17B4 monoclonal antibodies were made to the desired concentrations using the WES detection module Antibody Dilution Buffer 2 reagent. Diluted antibody solutions were added to the designated wells of the separation module sampling plate. The remaining WES assay reagents were finally added to the plate and then processed in the WES instrument using the default running and detection parameters.
HH cell lysate samples were prepared and used as above for antibody titration assays. Rabbit SP464 and mouse 17B4 antibodies were diluted to 4 µg/mL in the WES detection module Antibody Dilution Buffer 2 reagent. The antibody solutions were then diluted 1:1 (vol/vol) with varying concentrations of peptide, or diluent as a no peptide control, for 1 h at RT, and 10 µL of each antibody/peptide solution was added to the designated wells of the separation module sampling plate. Samples were run in duplicates or triplicates. Plates were then processed in the WES instrument using default running and detection parameters. The IC50 value for each alanine-substituted peptide was determined using a non-linear fit of the log concentration of peptide inhibitor versus the combined peak areas of the soluble and full-length endogenous LAG3 bands using the four-parameter model of Prism GraphPad Prism with the bottom value constrained to zero.

[2] = system: mouse 17B4 antibody (binding to LAG3 from HH cell lysate); test: ACE (automated capillary electrophoresis) peptide inhibition assay, 17B4; details: 17B4, HH cell lysate
Procedure: as §1
HH cell lysate samples were prepared and used as above for antibody titration assays. Rabbit SP464 and mouse 17B4 antibodies were diluted to 4 µg/mL in the WES detection module Antibody Dilution Buffer 2 reagent. […] The IC50 value for each alanine-substituted peptide was determined using a non-linear fit of the log concentration of peptide inhibitor versus the combined peak areas of the soluble and full-length endogenous LAG3 bands using the four-parameter model of Prism GraphPad Prism with the bottom value constrained to zero.

Row | Sequence | peptide concentrations at which antibody binding was eliminated ([1]; ACE, SP464, HH cell lysate) | peptide concentrations at which antibody binding was eliminated [2] | inhibition of SP464 binding by immunogen fragment (ACE) [1] | inhibition of SP464 binding by immunogen fragment (ACE) ([1]; listed as C-terminal sub-domain fragment)
1 | GPPAAAPGHPLAPGPHPAAPSSWGPRPRRY [full-length immunogen, 30-mer LAG3 immunogen peptide used to create both 17B4 and SP464, reference compound] | greater than 50 nM | greater than 50 nM | – | –
2 | PGHPLAPGP [peptide fragment consisting of the nine C-terminal amino acids of the N-terminal 15-mer] | – | – | inhibited binding | complete inhibition
